According to PMC11992111 (Nature Communications, 2025):

What was measured:
Format in all cases: binding
AZG1 = AZG1 (Arabidopsis thaliana, UniProt Q9SRK7); test: ITC at pH […]
AZG2 [1] = target: T1, AZG2 (Arabidopsis thaliana, UniProt Q84MA8, M449A); test: ITC
T1 sequence (Q84MA8 1-530 M449A): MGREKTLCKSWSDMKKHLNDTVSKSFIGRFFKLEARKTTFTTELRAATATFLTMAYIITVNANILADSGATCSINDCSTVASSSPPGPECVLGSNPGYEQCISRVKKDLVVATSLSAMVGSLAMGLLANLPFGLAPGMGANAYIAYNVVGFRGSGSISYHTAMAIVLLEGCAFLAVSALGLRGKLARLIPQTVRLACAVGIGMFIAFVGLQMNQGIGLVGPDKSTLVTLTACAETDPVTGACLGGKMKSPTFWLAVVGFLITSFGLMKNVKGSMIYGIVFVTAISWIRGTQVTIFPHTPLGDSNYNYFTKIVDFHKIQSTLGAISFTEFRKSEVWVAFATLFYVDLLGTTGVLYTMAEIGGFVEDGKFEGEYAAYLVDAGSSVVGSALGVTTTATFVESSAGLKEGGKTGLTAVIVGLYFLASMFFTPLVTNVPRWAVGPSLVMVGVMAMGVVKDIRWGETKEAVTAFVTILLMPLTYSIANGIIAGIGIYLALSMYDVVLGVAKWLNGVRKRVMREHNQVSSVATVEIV

AZG2 [2] = target: T2, AZG2 (Arabidopsis thaliana, UniProt Q84MA8); test: ITC at pH […]
T2 sequence (Q84MA8 1-530): T1 sequence (Q84MA8 1-530 M449A) with A449M

Kd (AZG1): 640 ± 100 nM | Kd (AZG2 [2]): 390 ± 90 nM
SMILES: C/C(=C\CNc1ncnc2[nH]cnc12)CO [tZ, trans-zeatin]
Kd (AZG2 [1]): M449A, which residue is not directly involved in substrate binding, had a comparable binding affinity to the WT protein

Positions count from the first letter of the chain named.
